{
  "source": "patent US10500249B2",
  "about": "“Compositions and methods for preventing or treating diseases, conditions, or processes characterized by aberrant fibroblast proliferation and extracellular matrix deposition” (MOERAE MATRIX, INC., priority 2014, dated 2019)",
  "test_in_all_cases": "Kinase Profiling Assay",
  "type_in_all_cases": "biochemical",
  "conditions_in_all_cases": "100 μM",
  "key": {"[1]": {"target": "ACK1 (h) (Homo sapiens, UniProt Q07912)", "experimental": "(§1) Every kinase activity measurement was conducted in duplicate.\n(§2) Specifically, in these assays, a positively charged substrate is phosphorylated with a radiolabeled phosphate group from an ATP if the kinase is not inhibited by an inhibitor peptide. The positively charged substrate then is attracted to a negatively charged filter membrane, quantified with a scintillation counter, and compared to a 100% activity control.\n(§3) In addition to determining the IC50 of the compound, the specificity of MK2 inhibitory peptides was assessed by examining activities of all 266 human kinases available for testing in the Millipore kinase profiling service (Table 1)."}, "[2]": {"target": "BTK (h) (Homo sapiens, UniProt Q06187)", "experimental": "as §1, §2, §3"}, "[3]": {"target": "T1, CK1γ1 (h) (Homo sapiens, UniProt Q9HCP0)", "T1 construct": "purchased Millipore", "experimental": "as §1, §2, §3"}, "[4]": {"target": "T2, CK2α2 (h) (Homo sapiens, UniProt P19784)", "T2 construct": "purchased Millipore", "experimental": "as §1, §2, §3"}, "[5]": {"target": "T3, CLK2 (h) (Homo sapiens, UniProt P49760)", "T3 construct": "purchased Millipore", "experimental": "as §1, §2, §3"}, "[6]": {"target": "FAK (h) (Homo sapiens, UniProt Q05397)", "experimental": "as §1, §2, §3"}, "[7]": {"target": "FGFR2(N549H) (h) (Homo sapiens, UniProt P21802, N549H)", "experimental": "as §1, §2, §3"}, "[8]": {"target": "FGFR3 (h) (Homo sapiens, UniProt P22607)", "experimental": "as §1, §2, §3"}, "[9]": {"target": "T4, GRK5 (h) (Homo sapiens, UniProt P34947)", "T4 construct": "purchased Millipore", "experimental": "as §1, §2, §3"}, "[10]": {"target": "T5, IGF-1R (h) (Homo sapiens, UniProt P08069)", "T5 construct": "purchased Millipore", "experimental": "as §1, §2, §3"}, "[11]": {"target": "T6, JAK3 (h) (Homo sapiens, UniProt P52333)", "T6 construct": "purchased Millipore", "T6 sequence (P52333 1-1124)": "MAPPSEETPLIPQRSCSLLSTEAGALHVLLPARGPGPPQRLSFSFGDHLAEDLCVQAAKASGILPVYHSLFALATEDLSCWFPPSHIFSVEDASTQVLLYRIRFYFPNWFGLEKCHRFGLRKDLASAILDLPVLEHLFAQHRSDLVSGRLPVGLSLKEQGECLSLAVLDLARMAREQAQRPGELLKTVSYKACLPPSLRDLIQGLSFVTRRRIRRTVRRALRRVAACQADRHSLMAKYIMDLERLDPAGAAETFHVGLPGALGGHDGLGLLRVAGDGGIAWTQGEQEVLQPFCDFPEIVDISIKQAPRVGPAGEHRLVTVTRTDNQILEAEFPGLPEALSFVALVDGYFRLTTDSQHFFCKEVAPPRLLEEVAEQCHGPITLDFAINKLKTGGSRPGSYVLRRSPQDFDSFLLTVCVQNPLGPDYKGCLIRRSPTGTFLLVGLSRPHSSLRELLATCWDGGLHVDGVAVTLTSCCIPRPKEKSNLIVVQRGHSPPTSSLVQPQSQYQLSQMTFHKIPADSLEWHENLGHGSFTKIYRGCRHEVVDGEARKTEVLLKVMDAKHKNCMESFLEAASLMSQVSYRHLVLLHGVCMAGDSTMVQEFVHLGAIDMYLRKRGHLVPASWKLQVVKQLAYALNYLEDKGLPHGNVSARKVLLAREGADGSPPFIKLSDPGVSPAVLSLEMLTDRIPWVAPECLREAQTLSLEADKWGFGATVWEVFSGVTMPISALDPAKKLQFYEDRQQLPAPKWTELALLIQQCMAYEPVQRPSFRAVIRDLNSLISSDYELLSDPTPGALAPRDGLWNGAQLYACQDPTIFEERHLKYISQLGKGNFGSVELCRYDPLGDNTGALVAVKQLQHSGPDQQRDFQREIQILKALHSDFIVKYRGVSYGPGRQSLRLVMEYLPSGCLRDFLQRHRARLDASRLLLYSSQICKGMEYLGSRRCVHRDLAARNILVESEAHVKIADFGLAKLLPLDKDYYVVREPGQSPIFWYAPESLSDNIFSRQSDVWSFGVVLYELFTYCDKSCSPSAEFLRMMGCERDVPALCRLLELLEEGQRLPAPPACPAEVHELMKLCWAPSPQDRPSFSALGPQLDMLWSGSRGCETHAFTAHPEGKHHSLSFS", "experimental": "as §1, §2, §3"}, "[12]": {"target": "MAPK1 (h) (Homo sapiens, UniProt P27361)", "experimental": "as §1, §2, §3"}, "[13]": {"target": "T7, MRCKα (h) (Homo sapiens, UniProt Q5VT25)", "T7 construct": "purchased Millipore", "experimental": "as §1, §2, §3"}, "[14]": {"target": "Met(Y1248D) (h) (Homo sapiens, UniProt P08581, Y1230D)", "experimental": "as §1, §2, §3"}, "[15]": {"target": "Met(Y1248H) (h) (Homo sapiens, UniProt P08581, Y1230H)", "experimental": "as §1, §2, §3"}, "[16]": {"target": "T8, PAK6 (h) (Homo sapiens, UniProt Q9NQU5)", "T8 construct": "purchased Millipore", "experimental": "as §1, §2, §3"}, "[17]": {"target": "T9, PAR-1Bα (h) (Homo sapiens, UniProt Q7KZI7)", "T9 construct": "purchased Millipore", "T9 sequence (Q7KZI7 1-725 isoform Q7KZI7-4)": "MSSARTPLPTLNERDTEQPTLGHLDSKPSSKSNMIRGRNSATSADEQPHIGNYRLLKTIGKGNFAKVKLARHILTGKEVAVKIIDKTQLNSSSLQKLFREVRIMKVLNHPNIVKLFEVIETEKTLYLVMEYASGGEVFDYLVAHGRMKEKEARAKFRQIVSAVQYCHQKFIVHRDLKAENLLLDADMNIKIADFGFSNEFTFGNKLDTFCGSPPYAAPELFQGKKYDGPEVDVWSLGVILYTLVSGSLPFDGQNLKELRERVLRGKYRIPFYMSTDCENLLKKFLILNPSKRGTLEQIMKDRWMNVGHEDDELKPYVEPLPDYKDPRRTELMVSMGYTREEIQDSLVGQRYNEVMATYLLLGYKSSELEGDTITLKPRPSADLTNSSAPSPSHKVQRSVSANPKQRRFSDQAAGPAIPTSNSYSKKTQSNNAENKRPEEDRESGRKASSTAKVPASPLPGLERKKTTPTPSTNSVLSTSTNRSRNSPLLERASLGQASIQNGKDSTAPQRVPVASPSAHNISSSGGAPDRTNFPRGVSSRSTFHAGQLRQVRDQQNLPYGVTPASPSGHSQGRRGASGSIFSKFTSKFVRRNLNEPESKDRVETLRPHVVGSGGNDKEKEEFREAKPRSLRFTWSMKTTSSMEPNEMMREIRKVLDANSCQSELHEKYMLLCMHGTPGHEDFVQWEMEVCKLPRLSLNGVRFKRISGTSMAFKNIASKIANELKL", "experimental": "as §1, §2, §3"}, "[18]": {"target": "T10, PDGFRα (D842V) (h) (Homo sapiens, UniProt P16234, D842V)", "T10 construct": "purchased Millipore", "experimental": "as §1, §2, §3"}, "[19]": {"target": "T11, PKA (h) (Homo sapiens, UniProt P17612)", "T11 construct": "purchased Millipore", "experimental": "as §1, §2, §3"}, "[20]": {"target": "PKCη (h) (Homo sapiens, UniProt P24723)", "experimental": "as §1, §2, §3"}, "[21]": {"target": "Plk1 (h) (Homo sapiens, UniProt P53350)", "experimental": "as §1, §2, §3"}, "[22]": {"target": "Snk (h) (Homo sapiens, UniProt Q9NYY3)", "experimental": "as §1, §2, §3"}, "[23]": {"target": "TLK2 (h) (Homo sapiens, UniProt Q86UE8)", "experimental": "as §1, §2, §3"}, "[24]": {"target": "Tie2(R849W) (h) (Homo sapiens, UniProt Q02763, R849W)", "experimental": "as §1, §2, §3"}, "[25]": {"target": "T12, c-RAF (h) (Homo sapiens, UniProt P04049)", "T12 construct": "purchased Millipore", "experimental": "as §1, §2, §3"}, "[26]": {"target": "T13, cKit(V560G) (h) (Homo sapiens, UniProt P10721, V560G)", "T13 construct": "purchased Millipore", "experimental": "as §1, §2, §3"}},
  "data": [
    {"sequence": "FAKLAARLYRKALARQLGVAA [MMI-0300]", "values": [
      {"measurement": "% activity", "setting": "[1]", "result": 104, "unit": "%"},
      {"measurement": "% activity", "setting": "[2]", "result": 102, "unit": "%"},
      {"measurement": "% activity", "setting": "[3]", "result": 111, "unit": "%"},
      {"measurement": "% activity", "setting": "[4]", "result": 105, "unit": "%"},
      {"measurement": "% activity", "setting": "[5]", "result": 103, "unit": "%"},
      {"measurement": "% activity", "setting": "[6]", "result": 111, "unit": "%"},
      {"measurement": "% activity", "setting": "[7]", "result": 116, "unit": "%"},
      {"measurement": "% activity", "setting": "[8]", "result": 102, "unit": "%"},
      {"measurement": "% activity", "setting": "[9]", "result": 136, "unit": "%"},
      {"measurement": "% activity", "setting": "[10]", "result": 119, "unit": "%"},
      {"measurement": "% activity", "setting": "[11]", "result": 121, "unit": "%"},
      {"measurement": "% activity", "setting": "[12]", "result": 107, "unit": "%"},
      {"measurement": "% activity", "setting": "[13]", "result": 104, "unit": "%"},
      {"measurement": "% activity", "setting": "[14]", "result": 102, "unit": "%"},
      {"measurement": "% activity", "setting": "[15]", "result": 117, "unit": "%"},
      {"measurement": "% activity", "setting": "[16]", "result": 104, "unit": "%"},
      {"measurement": "% activity", "setting": "[17]", "result": 113, "unit": "%"},
      {"measurement": "% activity", "setting": "[18]", "result": 114, "unit": "%"},
      {"measurement": "% activity", "setting": "[19]", "result": 119, "unit": "%"},
      {"measurement": "% activity", "setting": "[20]", "result": 103, "unit": "%"},
      {"measurement": "% activity", "setting": "[21]", "result": 115, "unit": "%"},
      {"measurement": "% activity", "setting": "[22]", "result": 114, "unit": "%"},
      {"measurement": "% activity", "setting": "[23]", "result": 114, "unit": "%"},
      {"measurement": "% activity", "setting": "[24]", "result": 117, "unit": "%"},
      {"measurement": "% activity", "setting": "[25]", "result": 107, "unit": "%"},
      {"measurement": "% activity", "setting": "[26]", "result": 102, "unit": "%"}
    ]}
  ]
}
